The target of test [1] is 5-hydroxytryptamine receptor 1B (Homo sapiens, UniProt P28222).
Test [2] addresses 5-hydroxytryptamine receptor 5B (Rattus norvegicus, UniProt P35365).
Test [3] deals with 5-hydroxytryptamine receptor 2B (Rattus norvegicus, UniProt P30994).
Test [4] has as its target T1, 5-hydroxytryptamine receptor 2C (Rattus norvegicus, UniProt P08909).
T1 sequence (P08909 whole entry): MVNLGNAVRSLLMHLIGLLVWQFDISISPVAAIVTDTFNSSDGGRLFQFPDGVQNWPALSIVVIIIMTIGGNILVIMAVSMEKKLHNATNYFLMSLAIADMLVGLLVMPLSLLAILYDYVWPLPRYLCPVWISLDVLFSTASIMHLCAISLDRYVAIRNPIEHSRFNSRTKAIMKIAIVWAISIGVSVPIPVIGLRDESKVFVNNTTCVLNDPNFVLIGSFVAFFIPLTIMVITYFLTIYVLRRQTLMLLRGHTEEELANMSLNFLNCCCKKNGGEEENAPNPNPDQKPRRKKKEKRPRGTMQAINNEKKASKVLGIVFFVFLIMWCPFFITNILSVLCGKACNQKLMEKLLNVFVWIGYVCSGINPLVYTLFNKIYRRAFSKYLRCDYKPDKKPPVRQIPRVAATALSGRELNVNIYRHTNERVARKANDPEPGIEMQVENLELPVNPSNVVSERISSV

Sequences of proteins named here, by UniProt entry; tags and fusion partners are left off.
UniProt P28222, whole entry: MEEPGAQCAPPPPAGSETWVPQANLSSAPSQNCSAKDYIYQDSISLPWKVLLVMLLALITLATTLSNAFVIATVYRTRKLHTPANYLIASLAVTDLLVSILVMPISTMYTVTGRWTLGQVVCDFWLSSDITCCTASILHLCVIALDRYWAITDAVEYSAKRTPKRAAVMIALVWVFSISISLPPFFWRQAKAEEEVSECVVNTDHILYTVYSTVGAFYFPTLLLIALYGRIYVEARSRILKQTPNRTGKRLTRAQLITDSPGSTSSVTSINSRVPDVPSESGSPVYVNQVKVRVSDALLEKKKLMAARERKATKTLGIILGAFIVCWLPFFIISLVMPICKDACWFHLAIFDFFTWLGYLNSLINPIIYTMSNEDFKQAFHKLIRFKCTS
UniProt P35365, whole entry: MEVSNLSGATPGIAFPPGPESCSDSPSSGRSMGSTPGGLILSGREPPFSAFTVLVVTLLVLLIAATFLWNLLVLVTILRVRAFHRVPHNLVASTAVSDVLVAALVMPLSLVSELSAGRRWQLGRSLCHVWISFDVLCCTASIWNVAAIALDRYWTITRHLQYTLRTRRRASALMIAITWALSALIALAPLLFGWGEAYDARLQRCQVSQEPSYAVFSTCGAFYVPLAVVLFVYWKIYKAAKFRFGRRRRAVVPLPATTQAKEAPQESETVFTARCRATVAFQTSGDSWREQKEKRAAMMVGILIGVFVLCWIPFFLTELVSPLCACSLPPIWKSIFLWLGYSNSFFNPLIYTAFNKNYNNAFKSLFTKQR
UniProt P30994, whole entry: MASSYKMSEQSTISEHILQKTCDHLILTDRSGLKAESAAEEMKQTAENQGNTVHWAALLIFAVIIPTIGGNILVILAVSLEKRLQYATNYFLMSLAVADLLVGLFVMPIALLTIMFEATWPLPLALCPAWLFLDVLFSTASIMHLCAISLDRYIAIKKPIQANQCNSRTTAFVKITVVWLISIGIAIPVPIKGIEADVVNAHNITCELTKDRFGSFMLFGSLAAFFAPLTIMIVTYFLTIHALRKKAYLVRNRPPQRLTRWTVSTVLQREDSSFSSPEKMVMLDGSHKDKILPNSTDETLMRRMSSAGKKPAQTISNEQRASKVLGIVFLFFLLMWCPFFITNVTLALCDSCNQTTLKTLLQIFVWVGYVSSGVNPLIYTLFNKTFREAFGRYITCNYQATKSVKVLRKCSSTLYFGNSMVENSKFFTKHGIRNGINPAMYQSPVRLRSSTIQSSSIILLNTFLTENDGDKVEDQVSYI
UniProt P32304, whole entry: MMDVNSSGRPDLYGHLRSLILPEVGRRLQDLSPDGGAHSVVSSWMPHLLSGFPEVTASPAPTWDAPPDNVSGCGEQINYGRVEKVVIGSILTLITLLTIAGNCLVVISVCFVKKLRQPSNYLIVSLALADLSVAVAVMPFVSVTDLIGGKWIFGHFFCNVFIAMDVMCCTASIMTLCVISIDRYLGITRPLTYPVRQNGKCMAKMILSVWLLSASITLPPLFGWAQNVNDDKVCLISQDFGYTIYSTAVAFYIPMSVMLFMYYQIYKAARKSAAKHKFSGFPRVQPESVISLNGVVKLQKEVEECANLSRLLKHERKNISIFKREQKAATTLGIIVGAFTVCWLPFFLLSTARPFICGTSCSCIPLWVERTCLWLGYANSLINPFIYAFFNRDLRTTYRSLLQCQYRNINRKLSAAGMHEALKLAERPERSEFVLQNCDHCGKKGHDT

Test [5] has as its target 5-hydroxytryptamine receptor 7 (Mus musculus, UniProt P32304).
Test [6] deals with T2, 5-hydroxytryptamine receptor 1F (Rattus norvegicus, UniProt P30940).
T2 sequence (P30940 whole entry): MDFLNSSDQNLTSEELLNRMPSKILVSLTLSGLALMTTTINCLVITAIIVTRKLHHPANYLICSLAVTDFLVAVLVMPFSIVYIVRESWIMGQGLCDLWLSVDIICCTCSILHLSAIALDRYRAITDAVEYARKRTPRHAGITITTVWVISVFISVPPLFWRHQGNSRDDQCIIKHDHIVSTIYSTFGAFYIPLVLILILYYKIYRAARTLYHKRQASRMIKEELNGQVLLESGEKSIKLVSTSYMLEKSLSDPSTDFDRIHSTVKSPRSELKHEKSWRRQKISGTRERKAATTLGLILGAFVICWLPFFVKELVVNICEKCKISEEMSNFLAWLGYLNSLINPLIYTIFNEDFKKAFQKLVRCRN

Take `CC(C)NC[C@H](O)COc1cccc2ccccc12` [Propanolol,(+/-)]: in test [1], the Ki (in general, the equilibrium dissociation constant of an inhibitor or competing ligand from its target) amounted to 56.2 nM.
In test [2], `NCCc1c[nH]c2ccc(O)cc12` [[3H]-5-HT] showed an inhibitory constant (Ki) of 1320 nM.
In turn, `CN1C[C@@H](NS(=O)(=O)N(C)C)C[C@@H]2c3cccc4c3c(cn4C)C[C@H]21` [MESULERGINE] returned a Ki in test [3] of 36.3 nM.
For `COc1cc(CC(C)N)c(OC)cc1Br` (stereo not drawn) [2-(4-Bromo-2,5-dimethoxy-phenyl)-1-methyl-ethylamine((-)-DOB)], in test [4], the affinity, expressed as Ki, was 3.01 nM.
In the case of `CSc1ccc2c(c1)C(N1CCN(C)CC1)Cc1ccccc1S2` (configuration not stated) [methanesulfonic acid;1-methyl-4-(3-methylsulfanyl-5,6-dihydrobenzo[b][1]benzothiepin-5-yl)piperazine], affinity in test [5] was put at a Ki of 6.3 nM.
In turn, `CNS(=O)(=O)Cc1ccc2[nH]cc(CCN(C)C)c2c1` [Sumax] returned a Ki in test [6] of 64.6 nM.
In test [3], `Cc1nc2sccn2c(=O)c1CCN1CCC(=C(c2ccc(F)cc2)c2ccc(F)cc2)CC1` yielded an inhibitory constant (Ki) of 5.12 nM.

(Values after BindingDB's records for doi:10.1016/0028-3908(94)90059-0 (University of Alberta, 1994).)
